Test results: patent publication US20090209577A1, “Novel Triazolopyridine Compounds” (PFIZER INC., priority 2004, published 2009)

Chains of the proteins cited; added tags and fusions are not shown.
UniProt Q16539, whole entry: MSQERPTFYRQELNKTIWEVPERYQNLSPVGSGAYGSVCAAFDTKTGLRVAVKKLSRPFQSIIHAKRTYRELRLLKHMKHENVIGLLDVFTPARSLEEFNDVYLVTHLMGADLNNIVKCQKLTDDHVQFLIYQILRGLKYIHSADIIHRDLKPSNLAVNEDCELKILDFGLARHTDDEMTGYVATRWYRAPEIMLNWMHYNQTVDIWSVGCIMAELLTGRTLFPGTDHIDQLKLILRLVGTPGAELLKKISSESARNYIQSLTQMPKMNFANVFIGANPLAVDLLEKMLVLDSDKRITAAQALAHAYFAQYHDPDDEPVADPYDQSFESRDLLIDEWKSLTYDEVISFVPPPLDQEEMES

Target: T1, human p38 kinase alpha (Homo sapiens, UniProt Q16539)
T1 construct: The coding region of the human p38a cDNA was obtained by PCR-amplification from RNA isolated from the human monocyte cell line THP.1; made in house; host or cells: E. coli DH10B
Assay: p38 kinase in vitro assay (PHAS-I / 32P-ATP format or EGFRP / 33P-ATP format)
Assay type: biochemical
Conditions: activated human p38 kinase alpha, 50 μM unlabeled ATP; two assay formats, table does not say which
Description: The ability of compounds to inhibit human p38 kinase alpha was evaluated using two in vitro assay methods. In the first method, activated human p38 kinase alpha phosphorylates a biotinylated substrate, PHAS-I (phosphorylated heat and acid stable protein-insulin inducible), in the presence of gamma ^32P-ATP (^32P-ATP). PHAS-I was biotinylated prior to the assay and provides a means of capturing the substrate, which is phosphorylated during the assay. p38 Kinase was activated by MKK6. Compounds were tested in 10 fold serial dilutions over the range of 100 μM to 0.001 μM using 1% DMSO. Each concentration of inhibitor was tested in triplicate.
All reactions were carried out in 96 well polypropylene plates. […]
Following incubation, 20 μl of reaction mixture was transferred to a high capacity streptavidin coated filter plate (SAM-streptavidin-matrix, Promega) prewetted with phosphate buffered saline. […] The plates were sealed and counted.
A second assay format was also employed that is based on p38 kinase alpha induced phosphorylation of EGFRP (epidermal growth factor receptor peptide, a 21 mer) in the presence ^33P-ATP. […] Compounds were evaluated in 50 μl reaction volumes in the presence of 25 mM Hepes pH 7.5, 10 mM magnesium acetate, 4% glycerol, 0.4% bovine serum albumin, 0.4 mM DTT, 50 μM unlabeled ATP, 25 μg EGFRP (200 μM), and 0.05 μCi ^33P-ATP. […]

IC50: 40.2 nM
Structure (SMILES): Cc1ccc(C(N)=O)cc1-c1nnc2ccc(CCc3ccc(F)cc3F)cn12 (racemic) [Example 22, racemic 3-{6-[2-(2,4-difluorophenyl)ethyl]-5,6,7,8-tetrahydro[1,2,4]triazolo[4,3-a]pyridin-3-yl}-4-methylbenzamide]
